From ChEMBL document CHEMBL4330143, “Maximizing ER-α Degradation Maximizes Activity in a Tamoxifen-Resistant Breast Cancer Model: Identification of GDC-0927” (ACS Med Chem Lett, 2019) come the findings set out here.

SMILES strings stand for the structures.

As usually defined, the IC50 is the concentration needed to halve the response being measured. Read a high IC50 as weaker potency in that assay.

The assay deals with MCF7. Description: Antiproliferative activity against human MCF7 cells after 5 days by CellTiter-Glo assay. The note with it: MCF7, 120 h. Background: Cellular ATP, detected with luciferase, serves as a proxy for viable cell number.

`CC1=C(c2cccc(O)c2)C(c2ccc(OC[C@H](C)N3CC[C@@H](CF)C3)cc2)Oc2ccc(O)cc21` (some centres not stated) registered an IC50 of 0.2 nM.

On to `CC1=C(c2cccc(O)c2)C(c2ccc(OCCN3CCC(CF)CC3)cc2)Oc2ccc(O)cc21` (configuration not stated), for which it took 0.1 nM to reach half-maximal inhibition (IC50).
